Source: patent US5298508A, “Irreversible inhibitors of adenosine receptors” (priority 1992, dated 1994)

Amino acid sequences for entries named in this document (tags omitted).
UniProt P25099, whole entry: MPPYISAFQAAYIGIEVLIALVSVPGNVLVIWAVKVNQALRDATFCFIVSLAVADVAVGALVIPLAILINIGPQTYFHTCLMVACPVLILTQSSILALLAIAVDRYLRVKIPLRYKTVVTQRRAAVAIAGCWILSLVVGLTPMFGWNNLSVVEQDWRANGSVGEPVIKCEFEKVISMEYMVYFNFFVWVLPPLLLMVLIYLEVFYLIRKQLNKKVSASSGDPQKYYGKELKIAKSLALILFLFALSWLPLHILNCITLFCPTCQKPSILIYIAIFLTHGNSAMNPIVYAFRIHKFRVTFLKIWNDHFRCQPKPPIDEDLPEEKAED

Target: T1, A1 adenosine receptors (Rattus norvegicus, UniProt P25099)
T1 construct: A1 adenosine receptors in rat cerebral cortex membranes; from tissue; host or cells: rat cerebral cortex membranes
Assay: inhibition of binding of [3H]N6-phenylisopropyladenosine ([3H]PIA) to A1 adenosine receptors in rat cerebral cortex membranes
Conditions: Table II, against [3H]PIA, read-out: Ki at central A1 receptors, rat
Method: Ukena et al., FEBS Letters 209;122, 1986.
For the biochemical assays, stock solutions of xanthines in the millimolar concentration range in dimethylsulfoxide were prepared and stored frozen. The solutions were warmed to 50° C. prior to dilution in aqueous medium. […] Acad. Sci. USA, 83:4089, 1986. Inhibition of binding by a range of concentrations of a xanthine or adenosine derivative was assessed in triplicate in at least three separate experiments.

For `NCCNC(=O)Cc1ccc(NC(=O)Cc2ccc(Nc3ncnc4c3ncn4[C@@H]3O[C@H](CO)[C@@H](O)[C@H]3O)cc2)cc1` [Compound 26a, reference compound], the Ki was 1.3 ± 0.3 nM.
